Source: US10022353B2, “Cebranopadol for treating pain in subjects with impaired hepatic and/or impaired renal function” (dated 2018)

Experiment: Phase I single dose study, pharmacokinetics in subjects with different degrees of impaired renal function
Details: single oral 200 μg Cebranopadol dose; for AUC0-t / AUC0-∞ / Cmax / Tmax / AUClast: mean
[1] = final data, mild renal impairment
[2] = final data, moderate renal impairment
[3] = final data, no renal impairment
[4] = final data, severe renal impairment
[5] = preliminary data, mild renal impairment
[6] = preliminary data, moderate renal impairment
[7] = preliminary data, no renal impairment
[8] = preliminary data, severe renal impairment

CN(C)[C@]1(c2ccccc2)CC[C@]2(CC1)OCCc1c3cc(F)ccc3[nH]c12
AUC0-t [1]: 3.132 ng·h/mL | AUC0-∞ [1]: 3.229 ng·h/mL | Cmax [1]: 0.144 ng/mL | Tmax [1]: 5.2 h | AUC0-t [2]: 3.122 ng·h/mL | AUC0-∞ [2]: 3.893 ng·h/mL | Cmax [2]: 0.128 ng/mL | Tmax [2]: 4.6 h | AUC0-t [3]: 2.65 ng·h/mL | AUC0-∞ [3]: 2.728 ng·h/mL | Cmax [3]: 0.125 ng/mL | Tmax [3]: 4.4 h | AUC0-t [4]: 2.946 ng·h/mL | AUC0-∞ [4]: 3.533 ng·h/mL | Cmax [4]: 0.131 ng/mL | Tmax [4]: 5.3 h | AUClast [5]: 3.18 ng·h/mL | Cmax [5]: 0.144 ng/mL | AUClast [6]: 3.12 ng·h/mL | Cmax [6]: 0.128 ng/mL | AUClast [7]: 2.65 ng·h/mL | Cmax [7]: 0.125 ng/mL | AUClast [8]: 2.95 ng·h/mL | Cmax [8]: 0.131 ng/mL | trend in main pharmacokinetic parameters with increasing degree of renal impairment: no indication for any trend
